## Apparent affinities of Ab-14 variants for a coronavirus HR2 peptide

Values reported by Li et al. 2023, doi:10.1038/s41467-023-39022-2 (FLAb copy).

The target is the same throughout: PDVDLGDISGINAS, from the HR2 region of SARS-CoV-2 spike.

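The parent was found by panning a naive human phage display library on the peptide. These sequences belong to a second round, designed from the earlier measurements on random variants of the parent. Several design methods are mixed in this list. The scFvs were displayed on barcoded MATa yeast, the peptide on MATalpha yeast. Binding brings cells together so that they mate, and sequencing counts the barcode pairs among the diploids. Read counts were normalised to the haploid input and turned into Kd by a linear fit to BCL2-family pairs of known affinity, for each replicate. Each pool was mated in six replicate cultures.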

Parent: Ab-14, a human scFv built as VH, three GGGGS repeats, VL. Only the CDRs of the heavy chain vary.
VH: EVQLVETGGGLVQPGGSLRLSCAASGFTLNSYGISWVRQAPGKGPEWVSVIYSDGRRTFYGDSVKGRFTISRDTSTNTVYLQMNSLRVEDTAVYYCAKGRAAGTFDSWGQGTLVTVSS
VL: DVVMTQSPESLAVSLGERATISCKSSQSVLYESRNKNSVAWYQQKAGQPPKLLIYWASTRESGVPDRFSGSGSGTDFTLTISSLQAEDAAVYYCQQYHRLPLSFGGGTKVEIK

Each variant is given by its three heavy chain CDRs, as the data file delimits them; those of the parent are GFTLNSYGIS, VIYSDGRRTFYGDSVK, GRAAGTFDS. Variants here have at most six changes. Each Kd is an estimate from the mating assay, the geometric mean of the replicates in which the pair was seen; lower is stronger. "no signal" means that the variant was in the library but no mating with the target was seen in any replicate; the authors take this as a sign of poor binding, and no number exists. Entries are sorted by rising average, undetected variants last. Background: pairings of all heavy chain designs with three empty control strains gave a value in 1% of cases (median 120 nM, 5th percentile 7.0 nM). Values in that range, when seen in few replicates, are hard to tell from nonspecific mating. The range of this assay differs from that of the first round, and the authors advise against merging the two. The authors' rule: three or more of the six replicates give a measured affinity, fewer mean a poor binder. Where one sequence has several entries in the source, the replicates are pooled. Of ten entries with the parent sequence, four were seen in most replicates (averages 2.2 nM to 240 nM), three in one and three in none, so single entries are noisy.

CDR-H1	CDR-H2	CDR-H3	Kd (apparent)	seen in
GFDLNEYGIS	VIYSDGRRTFYTDSVK	GRNAGTFDS	110 pM	6 of 6
GFDLNSYGIS	VIYSDGQRTFYVDSVK	GRLAGTFDS	550 pM	5 of 6
GFDLNSYGIS	VIYSDGRRTFYADSVK	GREAGTFDK	620 pM	6 of 6
GFNLNSYGIS	VIYSDGRRTFYADSVK	GQAAGTFDS	660 pM	6 of 6
GFTLNQYGIS	VIYSDGRRTMYGDSVK	GRAAGTFDS	770 pM	2 of 6
GFDLNEYGIS	VIYADGRRTFYIDSVK	GENAGTFDS	920 pM	6 of 6
GFDLNTYGIS	VIYSDGRRTFYADSVK	GREAGTFDS	930 pM	6 of 6
GFDLNQYGIS	VIYSDGTRTFYSDSVK	GRAAGTFDS	940 pM	6 of 6
GFTLNDYGIS	VIYSDGLRTWYIDSVK	GRAAGTFDS	970 pM	3 of 6
GFDLNSYGIS	VIYSDGRRTFYGDSVK	GHAAGTFDA	1.2 nM	6 of 6
GFTLNEYGIS	VIYSDGRRTFYGDSVK	GWVAGTFDT	1.3 nM	6 of 6
GFTLNSYGIS	VIYSDGRRTFYGDSVK	GVEAGTFDT	1.4 nM	6 of 6
GFTLNEYGIS	VIYADGRRTFYGDSFK	GRAAGTFNS	1.6 nM	6 of 6
GFELNDYGIS	VIYSDGRRTFYGDSVK	GRTAGTFDS	1.6 nM	6 of 6
GFELKSYGIS	VIYADGRRTFYGDSVK	GKAAGTFDS	1.8 nM	6 of 6
GFELNEYGIS	VIYSDGRRTFYGDSVK	GRAAGTFDT	1.8 nM	6 of 6
GFHLNSYGIS	VIYSDGMRTFYSDSVK	GRTAGTFDS	2.1 nM	5 of 6
GFTLNEYGIS	VIYSDGRRTFYGDSVK	GRLAGTFDS	3.8 nM	6 of 6
GFDLNQYGIS	VIYSDGRRTFYGDSVK	GRQAGTFDS	4.3 nM	6 of 6
GFNLNEYGIS	VIYSDGRRTAYGGSVK	GTAAGTFDQ	4.9 nM	6 of 6
GFTLNSYGIS	VIYSDGRRTFYSDSVK	GRAAGTFDS	6.4 nM	12 of 12
SFDLNSYGIS	VIYSDGRRTFYGDSVK	GRTAGTFDA	6.7 nM	5 of 6
MFELNSYGIS	VIYSDGRRTFYADSVK	GRTAGTFDS	7.1 nM	6 of 6
GFDLNEYGIS	VIYADGRRTFYADSVK	GELAGTFDS	7.7 nM	5 of 6
GFTLNSYGIS	VIYSDGMRTFYGDSVK	GRVAGTFDS	8.1 nM	5 of 6
GFTLNEYGIS	VIYSDGRRTFYGDSVK	GRMAGTFDI	8.7 nM	6 of 6
GFTLNDYGIS	VIYSDGRRTFYKDSVK	GRAAGTFDS	10 nM	6 of 6
GFHLNSYGIS	VIYSDGRRTFYADSVK	GHAAGTFDS	12 nM	6 of 6
GFKLNSYGIS	VIYSDGRRTFYDDSVK	GQTAGTFDS	13 nM	5 of 6
GFTLNKYGIS	VIYSDGRRTFYSDSVK	GRDAGTFDS	18 nM	5 of 6
GFQLNSYGIS	VIYSDGRRTFYSDSVK	GQAAGTFDL	24 nM	6 of 6
GFNLNSYGIS	VIYSDGRRTFYVDDVK	GRLAGTFDS	27 nM	6 of 6
GFCLNEYGIS	VIYSDGRRTFYGDSVK	GRTAGTFDS	28 nM	3 of 6
GFRFSEYGIS	VIYSDGRRTFYGDSVK	GRAAGTFDQ	29 nM	5 of 6
GFSLNDYGIS	VIYSDGRRTFYGDSVK	GRVAGTFIS	29 nM	3 of 6
GFVLNSYGIS	VIYSDGRRTFYADSVK	GQAAGTFDS	31 nM	6 of 6
GFTLNSYGIS	VIYSDGKRTFYGDSVK	GKAAGTFDT	57 nM	6 of 6
GFTLNEYGIS	VIYSDGRRTIYSDSVK	GRWAGTFDS	78 nM	5 of 6
GFPLNSYGIS	VIYSDGRRTFYGDSVK	GRAMGTFDS	400 nM	1 of 6
GFTLNSYGIS	VIYSDGRRTFYGDSVK	GRAAGVFDS	no signal	0 of 6
GFSLNDYGIS	VIYSDGRRTFYSDSVK	GRAAGFFDS	no signal	0 of 6
GFTLNEYGIS	VIYSDGRRTFYSDSVK	GRAAVTFDT	no signal	0 of 6
GFTLNSYGIS	VIPSDGERTFYGDSVR	GRHAGTFDS	no signal	0 of 6
GFTLNSYGIS	VIYADGRRTFYGDSVK	GLAAGTFKM	no signal	0 of 6
GFTLESYGIS	VIYSDGRRTFYGDSVK	GRAAGTFTV	no signal	0 of 6
WFSLNEYGIS	VIYSDGRRTFYGDSVK	GRNAGTFDS	no signal	0 of 6
GFDLNSYGIS	VIYSDGRRTFYGDSVK	GRTAGKFDS	no signal	0 of 6
GFTLNEYGIS	VIYSDGRRTFYTDSVK	GRAAGMFDS	no signal	0 of 6
GFTLNDYGIS	VIYSDGRRTQYIDSVK	GRALGTFDS	no signal	0 of 6
GFTLNEYGIS	VIYSDGRRTFYGDSVK	GRAYWTFDS	no signal	0 of 6
GFELNSYGIS	VIYSDGRRTFYADSVK	GRTAGTFWS	no signal	0 of 6
GFTLESYGIS	VIYSDGRRTFYIDSVK	GRAAGTFDS	no signal	0 of 6

The opening 5 entries, copied out:

CDR-H1	CDR-H2	CDR-H3	Kd (apparent)	seen in
GFDLNEYGIS	VIYSDGRRTFYTDSVK	GRNAGTFDS	110 pM	6 of 6
GFDLNSYGIS	VIYSDGQRTFYVDSVK	GRLAGTFDS	550 pM	5 of 6
GFDLNSYGIS	VIYSDGRRTFYADSVK	GREAGTFDK	620 pM	6 of 6
GFNLNSYGIS	VIYSDGRRTFYADSVK	GQAAGTFDS	660 pM	6 of 6
GFTLNQYGIS	VIYSDGRRTMYGDSVK	GRAAGTFDS	770 pM	2 of 6